# Membrane permeability of cyclic peptides

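Conditions beyond the assay type are not listed; see the original paper. The list need not hold all peptides of the study. Entries at the database's floor value (log10 P of -10) are not listed.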

PAMPA measures passive passage through an artificial lipid membrane. Permeability is in 10^-6 cm/s, converted from the database's log10 values; higher is more permeable.

structure (SMILES)	PAMPA (10^-6 cm/s)
CC(C)C[C@@H]1NC(=O)[C@@H](C)NC(=O)[C@H]2CCCN2C(=O)[C@H](Cc2ccccc2)NC(=O)[C@H](CC(C)C)N(C)C(=O)[C@H]2CCCN2C(=O)[C@@H](CC(C)C)N(C)C1=O	1.7
CCCN1CC(=O)N[C@@H](CC(C)C)C(=O)N[C@H](CC(C)C)C(=O)N2CCC[C@@H]2C(=O)N(Cc2ccccc2)CC(=O)N[C@@H](Cc2ccccc2)C(=O)N2CCC[C@@H]2C1=O	2.8
CC(C)C[C@@H]1NC(=O)[C@@H]2CCCN2C(=O)[C@H](CC(C)C)NC(=O)CN(Cc2ccccc2)C(=O)[C@H](C)NC(=O)[C@H](Cc2ccccc2)NC1=O	0.89
CC(C)C[C@@H]1C(=O)N[C@@H](Cc2ccccc2)CC(=O)N2CCC[C@@H]2C(=O)N(C)[C@@H](CC(C)C)C(=O)N[C@@H](Cc2ccccc2)C(=O)N2CCC[C@@H]2C(=O)N[C@@H](Cc2ccccc2)CC(=O)N1C	3.8
CC(C)C[C@H]1NC(=O)[C@@H]2CCCN2C(=O)[C@@H](CC(C)C)NC(=O)[C@H](CC(C)C)N(C)C(=O)[C@@H](C)N(C)C(=O)[C@H](Cc2ccccc2)NC1=O	2.8
CCCN1CC(=O)N[C@@H](CC(C)C)C(=O)N(C)[C@@H](CC(C)C)C(=O)N2CCC[C@H]2C(=O)N(Cc2ccccc2)CC(=O)N[C@@H](Cc2ccccc2)C(=O)N2CCC[C@@H]2C1=O	6.3
CC(C)C[C@@H]1NC(=O)[C@H](C)NC(=O)[C@H](Cc2ccccc2)NC(=O)CN(Cc2ccccc2)C(=O)[C@@H]2CCCN2C(=O)[C@H](CC(C)C)NC1=O	1.4
CC(C)C[C@@H]1NC(=O)C[C@H](Cc2ccccc2)NC(=O)[C@@H]2CCCN2C(=O)[C@H](Cc2ccccc2)NC(=O)[C@@H](CC(C)C)NC(=O)[C@H]2CCCN2C(=O)[C@@H](CC(C)C)N(C)C1=O	3.2
CCCN1CC(=O)N(C)[C@@H](CC(C)C)C(=O)N(C)[C@H](CC(C)C)C(=O)N2CCC[C@@H]2C(=O)N(Cc2ccccc2)CC(=O)N[C@@H](Cc2ccccc2)C(=O)N2CCC[C@H]2C1=O	4
CC(C)C[C@@H]1C(=O)N[C@@H](Cc2ccccc2)C(=O)N2CCC[C@@H]2C(=O)N[C@@H](C)C(=O)N[C@H](CC(C)C)C(=O)N(Cc2ccccc2)CC(=O)N2CCC[C@H]2C(=O)N1C	5.6
CC(C)C[C@H]1NC(=O)C[C@H](Cc2ccccc2)NC(=O)[C@@H]2CCCN2C(=O)[C@H](Cc2ccccc2)NC(=O)[C@H](CC(C)C)N(C)C(=O)[C@@H]2CCCN2C(=O)[C@H](CC(C)C)N(C)C1=O	1.4
CCCN1CC(=O)N[C@@H](CC(C)C)C(=O)N(Cc2ccccc2)CC(=O)N2CCC[C@@H]2C(=O)N(Cc2ccccc2)CC(=O)N[C@@H](Cc2ccccc2)C(=O)N2CCC[C@H]2C1=O	0.62
CC(C)C[C@@H]1C(=O)N[C@H](CC(C)C)C(=O)N2CCC[C@@H]2C(=O)N(Cc2ccccc2)CC(=O)N[C@@H](Cc2ccccc2)C(=O)N2CCC[C@H]2C(=O)N[C@@H](C)C(=O)N1C	1.1
CC(C)C[C@@H]1C(=O)N[C@@H](Cc2ccccc2)C(=O)N2CCC[C@@H]2C(=O)N(C)[C@@H](C)C(=O)N(C)[C@H](CC(C)C)C(=O)N(Cc2ccccc2)CC(=O)N2CCC[C@@H]2C(=O)N1C	4
CCCN1CC(=O)N(C)[C@H](CC(C)C)C(=O)N(C)[C@H](CC(C)C)C(=O)N2CCC[C@@H]2C(=O)N(C)[C@@H](CC(C)C)C(=O)N[C@@H](Cc2ccccc2)C(=O)N2CCC[C@@H]2C1=O	14
CC(C)C[C@@H]1NC(=O)[C@H]2CCCN2C(=O)CN(Cc2ccccc2)C(=O)[C@@H](CC(C)C)N(C)C(=O)[C@H](C)NC(=O)[C@H](Cc2ccccc2)NC1=O	0.79

Values of Townsend et al. 2020, doi:10.26434/chemrxiv.13335941.v1, as listed in CycPeptMPDB.